Measurements taken from patent US12465594B2 (Brown University, priority 2018, dated 2025).

Sequences of proteins named here, by UniProt entry; tags and fusion partners are left off. A change or cut given only in a name is not applied to a line headed by its entry. A line that says so, or that is headed by a name, gives the form on record, which may keep a tag or linker.
HEK293 cells expressing FLAG-CRFBP(10 kD)-HA-CRF2α (Homo sapiens, UniProt P24387+Q13324), UniProt P24387+Q13324, fused: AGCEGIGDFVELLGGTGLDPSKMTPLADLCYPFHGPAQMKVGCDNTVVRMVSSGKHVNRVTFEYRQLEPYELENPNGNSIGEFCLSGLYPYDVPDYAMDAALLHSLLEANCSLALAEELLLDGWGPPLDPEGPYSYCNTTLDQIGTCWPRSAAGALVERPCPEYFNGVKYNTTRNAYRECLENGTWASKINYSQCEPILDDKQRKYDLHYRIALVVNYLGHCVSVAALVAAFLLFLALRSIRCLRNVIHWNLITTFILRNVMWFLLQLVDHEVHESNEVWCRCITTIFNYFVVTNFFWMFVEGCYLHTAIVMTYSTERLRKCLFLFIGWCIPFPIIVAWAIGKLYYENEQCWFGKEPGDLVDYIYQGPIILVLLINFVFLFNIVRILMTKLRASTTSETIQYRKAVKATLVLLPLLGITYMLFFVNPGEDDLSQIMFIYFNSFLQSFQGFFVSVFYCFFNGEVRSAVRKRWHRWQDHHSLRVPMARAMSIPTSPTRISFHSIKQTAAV
UniProt P24387: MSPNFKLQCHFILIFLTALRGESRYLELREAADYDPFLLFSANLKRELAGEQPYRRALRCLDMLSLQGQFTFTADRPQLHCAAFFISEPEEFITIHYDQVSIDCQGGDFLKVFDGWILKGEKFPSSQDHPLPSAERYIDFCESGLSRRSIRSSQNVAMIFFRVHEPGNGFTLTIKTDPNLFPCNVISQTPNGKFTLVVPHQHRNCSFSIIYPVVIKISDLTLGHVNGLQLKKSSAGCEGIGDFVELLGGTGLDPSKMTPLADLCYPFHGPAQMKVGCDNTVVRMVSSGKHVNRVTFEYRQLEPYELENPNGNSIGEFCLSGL
UniProt Q13324: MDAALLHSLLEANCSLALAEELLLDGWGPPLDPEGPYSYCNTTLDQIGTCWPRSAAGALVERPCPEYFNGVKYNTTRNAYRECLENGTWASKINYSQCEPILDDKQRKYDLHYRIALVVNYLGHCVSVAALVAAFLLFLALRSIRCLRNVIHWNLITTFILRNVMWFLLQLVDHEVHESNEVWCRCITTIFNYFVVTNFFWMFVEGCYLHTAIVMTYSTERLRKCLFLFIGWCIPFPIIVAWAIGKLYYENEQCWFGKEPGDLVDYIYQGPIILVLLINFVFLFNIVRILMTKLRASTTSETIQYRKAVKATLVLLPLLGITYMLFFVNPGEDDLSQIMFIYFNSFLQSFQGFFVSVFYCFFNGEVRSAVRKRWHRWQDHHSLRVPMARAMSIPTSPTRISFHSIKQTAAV

Molecular target: HEK293 cells expressing FLAG-CRFBP(10 kD)-HA-CRF2α (Homo sapiens, UniProt P24387+Q13324)
Details: read-out: IC50, inhibition of CRF-induced intracellular calcium release; CRF 1 μM, 384-well (FIG. 2B legend)

Work on antisauvagine 30 [AS-30] yielded an IC50 of 17 ± 1 nM.
